Laboratory results from US20020086860A1, “[1,4]Diazepino [6,7,1-jk] carbazoles and derivatives” (American Home Products Corporation, priority 2000, published 2002).

The chains behind the UniProt entries cited, without tags or fusion partners. Residues count along the entry.
UniProt P28335, 33-458: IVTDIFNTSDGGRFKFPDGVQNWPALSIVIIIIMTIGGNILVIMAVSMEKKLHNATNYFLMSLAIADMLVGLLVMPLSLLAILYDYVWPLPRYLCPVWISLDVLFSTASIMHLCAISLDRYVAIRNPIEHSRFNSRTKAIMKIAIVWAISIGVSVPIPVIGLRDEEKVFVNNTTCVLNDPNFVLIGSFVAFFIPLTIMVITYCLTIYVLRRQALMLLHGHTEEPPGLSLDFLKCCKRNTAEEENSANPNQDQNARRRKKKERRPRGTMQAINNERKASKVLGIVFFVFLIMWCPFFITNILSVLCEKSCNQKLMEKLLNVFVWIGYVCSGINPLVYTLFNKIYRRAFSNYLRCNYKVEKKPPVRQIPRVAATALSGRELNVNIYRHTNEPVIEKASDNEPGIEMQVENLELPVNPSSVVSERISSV

Columns and labels:
[1] = molecular target: T1, human 5-hydroxytryptamine2C (h5HT2C) receptor (Homo sapiens, UniProt P28335); test: 5HT2C Receptor Binding Test Procedure ([125I]DOI displacement, CHO cell membranes); conditions: [125I]DOI binding, h5HT2C in CHO membranes; 95% confidence interval in brackets; read-out: Ki value and 95% confidence interval (reference compounds)
T1 construct: expressed in transfected cells; host or cells: CHO (Chinese Hamster Ovary) cells; membrane preparation

human 5-HT2C receptor = human 5-HT2C receptor (Homo sapiens, UniProt P28335); test: Stimulation of [3H] Inositol Monophosphate production by 5HT2C agonists in transfected CHO cells

Question: Which results are given for Clc1cccc(N2CCNCC2)c1 [mCPP, meta-chlorophenylpiperazine, reference compound]?
Answer: Ki [1]: 6.5 nM; EC50 (human 5-HT2C receptor; read-out: EC50 (reference compounds), [3H]IP1 production, CHO cells with human 5-HT2C): 46.8 nM; EMAX (relative to 5-HT) (human 5-HT2C receptor; relative to maximally effective 5-HT (10 μM)): 60%
